Reference: paper PMC8876276, “NanoSIMS Imaging Reveals the Impact of Ligand-ASO Conjugate Stability on ASO Subcellular Distribution” (Pharmaceutics, 2022)

Chains of the proteins cited; added tags and fusions are not shown. Residues count along the entry.
UniProt P43220, 24-463, species assumed: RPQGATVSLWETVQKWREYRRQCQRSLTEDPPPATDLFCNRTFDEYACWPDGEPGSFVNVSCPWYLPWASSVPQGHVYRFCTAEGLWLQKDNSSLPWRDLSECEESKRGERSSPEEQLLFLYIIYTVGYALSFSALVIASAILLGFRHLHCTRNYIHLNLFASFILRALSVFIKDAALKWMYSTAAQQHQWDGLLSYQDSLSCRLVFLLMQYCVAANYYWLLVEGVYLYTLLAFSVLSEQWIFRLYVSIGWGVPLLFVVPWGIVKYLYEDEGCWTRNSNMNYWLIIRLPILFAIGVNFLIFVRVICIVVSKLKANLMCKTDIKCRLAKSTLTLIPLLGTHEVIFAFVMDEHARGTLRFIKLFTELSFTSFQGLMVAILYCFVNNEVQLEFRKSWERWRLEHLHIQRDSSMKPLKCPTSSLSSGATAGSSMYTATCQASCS

Biological target: T1, GLP1R (Homo sapiens, UniProt P43220)
T1 construct: expressed in transfected cells
Test: GLP1R membrane fluorescence (internalization) by confocal microscopy in GLP1R-HEK293 cells
Type: cell-based

time of initiation of GLP1R membrane fluorescence loss (5-30 min exposure): ≤ 5 min
time to plateau of GLP1R membrane fluorescence loss (5-30 min exposure): 15 to 30 min
reduction of GLP1R membrane fluorescence (30 min incubation, 37 °C, anti-GLP1R Mab7F38, at least 10 fields, duplicate wells): ~ 50%
Substance: exenatide
